Consider one molecule from PMC4570798, “Characterisation of a Novel Anti-CD52 Antibody with Improved Efficacy and Reduced Immunogenicity” (PLoS ONE, 2015).

By UniProt entry, the sequences of proteins in these tests, tags left out. Where a name states a change or a piece, a line headed by the entry shows the natural chain unless it says otherwise.
UniProt P31358: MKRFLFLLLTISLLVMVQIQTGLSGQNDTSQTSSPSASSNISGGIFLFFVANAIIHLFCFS

The target of the test is T1, CD52 on the surface of HUT78 and REH^++ cells (Homo sapiens, UniProt P31358).
T1 construct: CD52, endogenous on the human lymphoid cell lines HUT78 and REH (high-expressing ++ clone); The introduction describes mature CD52 as a 12-residue peptide, glycosylated at Asn-3 and GPI-anchored; also called cell-surface CD52; surface CD52; source: endogenous, on HUT78 cells and REH^++ cells
T1 chain: GQNDTSQTSSPS
Kind of test: flow cytometry on cells; direct binding to HUT78 cells; varying concentrations of antibody, 1 hour at 4°C in FC buffer (PBS pH 7.4, 1% BSA, 0.05% sodium azide); goat anti-human IgG F(ab')2-PE. Particulars: one partner purified.

B1: chimeric 2E8 antibody (antibody, V domains shown)
VH: EVHLMESGGGLVQPGGSLRLSCAASGFTFSRYGMSWVRQTPDKRLELVAMMKTKGGRTYYPDSVKGRFTISRDNAKNSLYLQMSSLKSEDTAIYFCASDGYYWGQGTTLTVSS
VL: not shown
As to B1, the binding result is given as “binds”.
